How the values were obtained:
human MrgX2 receptor = human MrgX2 receptor (Homo sapiens, UniProt Q96LB1); test: Receptor Selection and Amplification Technology (R-SAT) functional assay, transfected NIH3T3 cells
Method: (§1) The functional receptor assay, Receptor Selection and Amplification Technology (R-SAT), was used to investigate the pharmacological properties of test compounds on MRGX1 or MRGX2 receptors. R-SAT is disclosed in U.S. Pat. Nos. 5,707,798, 5,912,132, and 5,955,281, each of which is incorporated by reference herein in its entirety, including any drawings.
(§2) Briefly, NIH3T3 cells were grown in 96-well tissue culture plates to 70-80% confluence. Cells were transfected for 16-20 h with plasmid DNAs using Polyfect (Qiagen Inc.) and the manufacturer's protocols. R-SATs were generally performed with 4 ng/well of receptor and 20 ng/well of β-galactosidase plasmid DNA. The human MrgX1, simian MrgX1, human MrgX2 and simian MrgX2 receptor genes were amplified by PCR from genomic DNA using oligodeoxynucleotide primers as described in U.S. patent application Ser. No. 11/359,209, which is incorporated by reference herein in its entirety, including any drawings. For large-scale transfections, cells were transfected for 16-20 h, then trypsinized and frozen in DMSO. Frozen cells were later thawed, plated at ˜10,000 cells per well of a 96 half-area well plate that contained test compound. With both methods, cells were then grown in a humidified atmosphere with 5% ambient CO2 for five days. The medium was then removed from the plates and marker gene activity was measured by the addition of the β-galactosidase substrate o-nitrophenyl β-D-galactopyranoside (ONPG, in PBS with 0.5% NP-40). The resulting […] reaction was measured in a spectrophotometric plate reader (Titertek Inc.) at 420 nm. All data were analyzed using the computer program XLFit (IDBSm). Efficacy is defined as the percent maximal activation compared to activation by a control compound (BAM22 in the case of human or simian MRGX1, STIA or Cortistatin-14 in the case of human or simian MRGX2). pEC50 is the negative of log(EC50), where EC50 is the calculated molar concentration of test compound that produces 50% of maximum activation.
(§3) Efficacy is reported relative to the ligands Bam22 for MrgX1 and STIA for MrgX2.

By UniProt entry, the sequences of proteins in these tests, tags left out.
UniProt Q96LB1, whole entry: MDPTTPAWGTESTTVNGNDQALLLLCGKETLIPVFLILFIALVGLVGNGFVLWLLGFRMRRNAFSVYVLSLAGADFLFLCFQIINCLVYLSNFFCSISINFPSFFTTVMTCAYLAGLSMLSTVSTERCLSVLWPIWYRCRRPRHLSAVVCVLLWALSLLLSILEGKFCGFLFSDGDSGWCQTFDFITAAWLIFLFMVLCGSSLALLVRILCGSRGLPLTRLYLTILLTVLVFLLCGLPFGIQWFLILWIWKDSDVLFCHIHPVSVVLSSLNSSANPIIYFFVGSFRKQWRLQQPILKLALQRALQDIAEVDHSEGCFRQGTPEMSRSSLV
UniProt Q96LB2, whole entry: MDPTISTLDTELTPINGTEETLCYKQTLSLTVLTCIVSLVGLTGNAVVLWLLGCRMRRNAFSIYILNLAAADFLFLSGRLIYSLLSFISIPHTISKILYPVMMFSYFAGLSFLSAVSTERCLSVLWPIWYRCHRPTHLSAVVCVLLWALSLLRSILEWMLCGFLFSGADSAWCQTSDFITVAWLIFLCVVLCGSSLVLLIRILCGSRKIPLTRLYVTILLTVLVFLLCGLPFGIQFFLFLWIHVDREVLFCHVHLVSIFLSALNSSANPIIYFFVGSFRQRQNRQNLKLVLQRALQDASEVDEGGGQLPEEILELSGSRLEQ

human MrgX1 receptor = human MrgX1 receptor (Homo sapiens, UniProt Q96LB2); test: as above; settings: pEC50 = negative log of molar EC50
Method: as §1, §2, §3

SMILES	Human-MrgX2 pEC50 (human MrgX2 receptor)	Human-MrgX1 pEC50 (human MrgX1 receptor)
N=C(N)NCCCC(C(N)=O)n1c(-c2cccc(Oc3ccccc3)c2)nc2cc(C(=O)Nc3ccc4cn[nH]c4c3)ccc21 (stereo not drawn)	nr	5.6
N=C(N)NCCCC(C(N)=O)n1c(-c2cccc(Oc3ccccc3)c2)nc2cc(C(=O)N3CCOCC3)ccc21 (stereo not drawn)	nr	5.8
N=C(N)NCCC[C@@H](C(N)=O)n1c(-c2cccc(Oc3ccccc3)c2)nc2cc(C(=O)NCc3cccc(C(F)(F)F)c3)ccc21	nr	6.4
